Test results: PubChem BioAssay (NCI)
Only a part is listed here, and it is no random draw. Active and inactive are the calls of the source. Rule as the data show it: active = growth inhibition above about 70%; inactive = the rest.

Columns and labels:
[1] = NCI Yeast Anticancer Drug Screen. Data for the rad50 strain (AID 155);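 also: 0% = growth of vehicle-only cultures of the same strain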; conditions: S. cerevisiae rad50 strain growth inhibition; at 50.0 µM; stronger effect = higher value
[2] = NCI Yeast Anticancer Drug Screen. Data for the mec2-1 strain (AID 157); conditions: S. cerevisiae mec2-1 strain, at 50.0 µM, stronger effect = higher value
[3] = NCI Yeast Anticancer Drug Screen. Data for the sgs1 mgt1 strain (AID 161);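 also: 0% = growth of cultures given vehicle only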; conditions: S. cerevisiae sgs1 mgt1 strain, at 50.0 µM, stronger effect = higher value
[4] = NCI Yeast Anticancer Drug Screen. Data for the cln2 rad14 strain (AID 165);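 also: 0% = growth equal to vehicle treated cultures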; conditions: S. cerevisiae cln2 rad14 strain, at 50.0 µM, stronger effect = higher value
[5] = NCI Yeast Anticancer Drug Screen. Data for the bub3 strain (AID 167); conditions: S. cerevisiae bub3 mutant strain, at 50.0 µM, stronger effect = higher value
[6] = NCI Yeast Anticancer Drug Screen. Data for the mlh1 rad18 strain (AID 175); conditions: S. cerevisiae mlh1 rad18 strain growth inhibition; at 50.0 µM; stronger effect = higher value

Measured: growth inhibition

O=C(CSc1ccc([N+](=O)[O-])cc1[N+](=O)[O-])c1ccc([N+](=O)[O-])cc1
inactive: [1] 5.25% | [2] 26.7% | [3] 15.4% | [4] -7.05% | [5] 30.8% | [6] 13.5%

O=c1oc(NCCCl)nc2ccccc12
inactive: [1] -1.05% | [2] 4.4% | [3] -3.65% | [4] -32.3% | [5] 0.7% | [6] -3.3%

N#C/C(=C\c1ccc(N(CCCl)CCCl)cc1)C(N)=O
inactive: [1] -28.1% | [2] -3.65% | [3] -1.75% | [4] -6.45% | [5] 15.7% | [6] -19.1%

CC(=O)OC1CNP(=O)(N(CCCl)CCCl)OC1 (stereo unspecified)
inactive: [1] 34.1% | [2] 27.2% | [3] 53.5% | [4] 4.1% | [5] 14.2% | [6] 37.4%

CCOC(=O)NP(=O)(NC(=O)NOC)NC(=O)OCC
inactive: [1] -14.8% | [2] -6% | [3] 0.25% | [4] -3.4% | [5] -3.7% | [6] -3.8%

Cc1ccc(CNCCCl)cc1
inactive: [1] 45.5% | [2] 40.6% | [3] 42.1% | [4] 19.3% | [5] 39.8% | [6] 41.4%

O=S(=O)(O)Oc1ccc(N(CCCl)CCCl)cc1
inactive: [1] -12.7% | [2] 7.7% | [3] -15.9% | [4] 16.7% | [5] -27% | [6] -13.2%

CN=P(c1ccccc1)(c1ccccc1)c1ccccc1
inactive: [1] 47.2% | [2] 11.1% | [3] 40.3% | [4] 0.25% | [5] -5.75% | [6] -9.85%

CCCc1cc(C)cc2nc(-c3ccccc3)oc12
inactive: [1] 12.6% | [2] 1.25% | [3] 3.4% | [4] -7.5% | [5] 1.2% | [6] 5.35%

FC(F)(F)c1cccc(NC2=NCC(CI)S2)c1 (stereo unspecified)
inactive: [1] 30.9% | [2] -16.1% | [3] 11.5% | [4] 1.15% | [5] -5.65% | [6] 18.7%

CN(CCCl)c1ccccc1
inactive: [1] -14% | [2] 1.35% | [3] -15.2% | [4] -14.4% | [5] -14.2% | [6] -27.7%

O=[As]c1ccc(NC(=O)c2ccccc2)cc1 (stereo unspecified)
inactive: [1] 5% | [2] 5.2% | [3] 8.7% | [4] -33% | [5] 6.25% | [6] 18.6%

CC[P+]1(c2ccccc2)CCC(C)(C)c2ccccc21 (stereo unspecified)
inactive: [1] 14.1% | [2] 30.1% | [3] 2.3% | [4] -16.1% | [5] 3.65% | [6] -1.6%

CCOP(=O)(CCBr)OCC
inactive: [1] 21.3% | [2] -1.2% | [3] 4.15% | [4] -20.1% | [5] 0.95% | [6] 30.8%

CCN(CC)CC(O)c1cc2ccccc2c2ccccc12 (stereo unspecified)
inactive: [1] 17.9% | [2] 2.9% | [3] 15.2% | [4] 3.25% | [5] 0.1% | [6] 20.6%

CCCSC1CCOP(=O)(N(CCCl)CCCl)N1C (stereo unspecified)
inactive: [1] 10.8% | [2] -0.75% | [3] 7.8% | [4] 1.7% | [5] 7.6% | [6] 28.6%
